From ChEMBL document CHEMBL2177096, “Sulfonyl fluoride inhibitors of fatty acid amide hydrolase” (J Med Chem, 2012)

Experiment: Inhibition of rat FAAH deltaTM mutant expressed in Escherichia coli using AAMCA as substrate after 15 mins by medium throughput fluorescent assay

O=S(=O)(F)CCCCCCCc1ccc(OCc2ccccc2)cc1
IC50: 3.7 nM
